Our source for the inhibition values is PubChem BioAssay AID686996 (Broad Institute, 2013).

Chains of the proteins cited; added tags and fusions are not shown. Residues count along the entry.
UniProt P55212, 24-179 limits assumed: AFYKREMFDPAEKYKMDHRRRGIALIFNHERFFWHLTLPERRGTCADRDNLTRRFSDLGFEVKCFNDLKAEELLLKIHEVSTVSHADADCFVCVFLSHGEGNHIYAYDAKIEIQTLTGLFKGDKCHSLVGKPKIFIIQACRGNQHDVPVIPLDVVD
UniProt P55212, 194-293 limits assumed: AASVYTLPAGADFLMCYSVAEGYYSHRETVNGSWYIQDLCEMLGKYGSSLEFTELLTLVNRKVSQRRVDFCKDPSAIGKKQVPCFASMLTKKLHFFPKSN

The list shows a part of the results, in another mix than the full data. The source made the active and inactive calls.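 How the source made its calls: active means mean inhibition across replicates at least about 35%, with every replicate also reaching that limit (limit read from the data); inconclusive means only one of the two criteria met; inactive means neither criterion met.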

The term inhibition denotes the relative decrease from the control value, in per cent.

The assay deals with Caspase-6 (Homo sapiens) (UniProt P55212). Nature of the assay: inhibition of CASP6 peptide cleavage – biochemical, VEID-R110 fluorescence, single point, set 2, primary screen (AID 686996).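 Further: 0% = median of neutral control wells and 100% = no fluorescence left.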 The following applies: purified caspase-6, Z-VEID-R110 cleavage fluorescence; at 12.5 µM; stronger effect = higher value.
Take `O=c1[nH]c2ccccc2n1C1CCN(C(c2cccs2)c2nnnn2C2CCCCC2)CC1` (centres undefined): the inhibition was inactive: -0.023%.

On to `COc1ccc(C(=O)NCC2(N3CCOCC3)CCCCC2)cc1OC`, for which the inhibition is inactive: 1.49%.

For the compound `O=c1[nH]c2ccccc2n1C1CCN(C(c2ccnc3ccccc23)c2nnnn2C2CCCC2)CC1` (centres undefined), the inhibition is inactive: -0.608%.

Consider `CCCCn1nnnc1C(c1ccccc1)N1CCC(n2c(=O)[nH]c3ccccc32)CC1` (centres undefined), for which the inhibition was inactive: 0.184%.

Take `COc1cc(C(=O)NCC2(N3CCOCC3)CCCCC2)cc(OC)c1C`: the inhibition is inactive: 4.31%.

In the case of `O=C(NCC1(N2CCOCC2)CCCCC1)c1cc(Br)ccc1Cl`, the inhibition is inactive: -4.1%.

Regarding `O=c1[nH]c2ccccc2n1C1CCN(C(c2cccs2)c2nnnn2C2CCCC2)CC1` (centres undefined), the inhibition was inactive: -1.81%.

Regarding `CCCCn1nnnc1C(c1cccc(OC)c1OC)N1CCC(n2c(=O)[nH]c3ccccc32)CC1` (centres undefined), the inhibition is inactive: 4.28%.

Consider `CCOC(=O)N1CCC(Nc2ccc(C)cc2)CC1`, for which the inhibition was inactive: -6.18%.

Regarding `COc1cccc(C(c2nnnn2C(C)(C)C)N2CCC(n3c(=O)[nH]c4ccccc43)CC2)c1OC` (centres undefined), the inhibition was inactive: 1.3%.

As to `N#Cc1ccc(C(=O)NCC2(N3CCCCC3)CCCCC2)cc1`, the inhibition was inactive: -2.7%.

Take `CC(C)(C)OC(=O)N1CCC(N(C(=O)c2ccccc2)c2ccc(Cl)cc2)CC1`: the inhibition was inactive: 2.42%.

Turning to `CC(C)(C)n1nnnc1C(c1cccc2ccccc12)N1CCC(n2c(=O)[nH]c3ccccc32)CC1` (centres undefined), the inhibition is inactive: 6.03%.

In the case of `CN(C)C1(CNC(=O)c2cccc(C#N)c2)CCCCC1`, the inhibition was inactive: 1.3%.

Consider `C/C(N)=N\P(=O)(Oc1ccccc1)Oc1ccccc1`, for which the inhibition is inactive: -0.975%.

For `CCCN1CCC(Nc2cc(OC)cc(OC)c2)CC1`, the inhibition was inactive: -84.3%.

On to `O=c1[nH]c2ccccc2n1C1CCN(C(c2ccccc2)c2nnnn2C2CCCC2)CC1` (centres undefined), for which the inhibition was inactive: -1.92%.

For the compound `Cc1cc(N(CCCl)CCCl)ccc1C=O`, the inhibition is inactive: -0.497%.

Consider `Cc1ccc(C(=O)NCC2(N3CCCCC3)CCCCC2)o1`, for which the inhibition was inactive: -4.09%.

Take `Fc1ccccc1NC1CCN(Cc2ccccc2)CC1`: the inhibition was inactive: -3.14%.

For `Cc1ccc(NC2(C#N)CCN(Cc3ccccc3)CC2)cc1`, the inhibition is inactive: -2.48%.

For the compound `COc1cccc(C(c2nnnn2C2CCCCC2)N2CCC(n3c(=O)[nH]c4ccccc43)CC2)c1OC` (centres undefined), the inhibition was inactive: 1.8%.

In the case of `CC(=O)N(c1ccccc1)C1CCNCC1`, the inhibition was inactive: -5.45%.

`CCC(c1nnnn1C1CCCCC1)N1CCC(n2c(=O)[nH]c3ccccc32)CC1` (centres undefined): the inhibition is inactive: -0.468%.

On to `COc1cc(OC)cc(C(=O)NCC2(N3CCCCC3)CCCCC2)c1`, for which the inhibition is inactive: 3.7%.

As to `O=c1[nH]c2ccccc2n1C1CCN(C(c2ccnc3ccccc23)c2nnnn2C2CCCCC2)CC1` (centres undefined), the inhibition was inactive: 1.8%.

Turning to `O=C(NCC1(N2CCCCC2)CCCCC1)c1ccco1`, the inhibition was inactive: 0.898%.

`CN(C)c1ccc(C(=O)NCC2(N3CCCCC3)CCCCC2)cc1`: the inhibition is inactive: -1.79%.

As to `Cn1c(=O)[nH]cc(N(CCCl)CCCl)c1=O`, the inhibition was inactive: 1.32%.

Take `Cc1ccccc1NC1(C#N)CCN(Cc2ccccc2)CC1`: the inhibition was inactive: 1.21%.

Consider `COc1ccc(C(c2nnnn2C2CCCCC2)N2CCC(n3c(=O)[nH]c4ccccc43)CC2)cc1` (centres undefined), for which the inhibition is inactive: 1.28%.

Consider `CC(C)(C)n1nnnc1C(c1ccnc2ccccc12)N1CCC(n2c(=O)[nH]c3ccccc32)CC1` (centres undefined), for which the inhibition was inactive: 2.48%.

`CC(C)(C)OC(=O)N1CCC(Nc2ccccc2)CC1`: the inhibition is inactive: -1.12%.

In the case of `O=C(O)C1(Nc2ccccc2)CCN(Cc2ccccc2)CC1`, the inhibition was inactive: -4.16%.

For the compound `NN(c1ccccc1)C1CCN(CCc2ccccc2)CC1`, the inhibition is inactive: -3.86%.

For the compound `O=c1[nH]c2ccccc2n1C1CCN(C(c2cc3ccccc3o2)c2nnnn2C2CCCC2)CC1` (centres undefined), the inhibition is inactive: 2.15%.

As to `CCCOc1ccc(C(=O)NCC2(N(C)C)CCCCC2)cc1`, the inhibition was inactive: -5.03%.

`CN1CCC(Nc2ccc(F)c(Cl)c2)CC1`: the inhibition was inactive: -3.23%.

For the compound `CN1CCC(Nc2ccc(Cl)cc2)CC1`, the inhibition is inactive: -9.09%.

Take `COc1cccc(C(c2nnnn2C2CCCC2)N2CCC(n3c(=O)[nH]c4ccccc43)CC2)c1OC` (centres undefined): the inhibition is inactive: 0.13%.

As for `COc1cc(OC)cc(C(=O)NCC2(N3CCOCC3)CCCCC2)c1`, the inhibition was inactive: -0.782%.

Take `COc1cccc(C(=O)N(c2cc(C)cc(C)c2)C2CCN(C(=O)OC(C)(C)C)CC2)c1`: the inhibition is inactive: 4.61%.

As for `CSc1ccccc1C(=O)NCC1(N2CCCCC2)CCCCC1`, the inhibition is inactive: -4.81%.

Consider `Cc1cccc(NC2(C#N)CCN(Cc3ccccc3)CC2)c1`, for which the inhibition is inactive: -2.81%.

For `COc1ccc(C(=O)NCC2(N3CCCCC3)CCCCC2)cc1`, the inhibition was inactive: -3.8%.

Regarding `COc1ccc(C(=O)NCC2(N3CCCCC3)CCCCC2)c(OC)c1OC`, the inhibition is inactive: -3.81%.

On to `CC(C)(C)OC(=O)N1CCC(N(C(=O)c2ccccc2)c2ccc(F)cc2)CC1`, for which the inhibition is inactive: -0.349%.

As to `CCC(c1nnnn1C1CCCC1)N1CCC(n2c(=O)[nH]c3ccccc32)CC1` (centres undefined), the inhibition is inactive: -2.15%.

Regarding `O=C(NCC1(N2CCCCC2)CCCCC1)c1ccc(=O)[nH]c1`, the inhibition is inactive: -5.1%.

In the case of `CCCCn1nnnc1C(CC)N1CCC(n2c(=O)[nH]c3ccccc32)CC1` (centres undefined), the inhibition is inactive: 0.366%.

Turning to `O=C(NCC1(N2CCCCC2)CCCCC1)c1cccs1`, the inhibition is inactive: -118%.

Regarding `CCCCn1nnnc1C(c1cccs1)N1CCC(n2c(=O)[nH]c3ccccc32)CC1` (centres undefined), the inhibition was inactive: 3.97%.

Consider `N#CC1(Nc2ccccc2)CCN(Cc2ccccc2)CC1`, for which the inhibition was inactive: 3.35%.

As for `O=C(NCC1(N2CCCCC2)CCCCC1)c1ccc(Cl)s1`, the inhibition was inactive: -3.62%.

Take `O=C(OC1CN2CCC1CC2)C1c2ccccc2Oc2ccccc21` (centres undefined): the inhibition was inactive: -8.91%.

As for `O=c1[nH]c2ccccc2n1C1CCN(C(c2cc3ccccc3o2)c2nnnn2C2CCCCC2)CC1` (centres undefined), the inhibition is inactive: -0.031%.

For the compound `COc1ccc(Cl)cc1C(=O)NCC1(N2CCOCC2)CCCCC1`, the inhibition is inactive: 1.27%.

`CCOC(=O)N1CCC(Nc2ccc(OC)cc2)CC1`: the inhibition was inactive: 2.27%.

Consider `CCCCn1nnnc1C(c1ccc(OC)cc1)N1CCC(n2c(=O)[nH]c3ccccc32)CC1` (centres undefined), for which the inhibition was inactive: 3.18%.
